Source: PubChem BioAssay
Only some compounds are listed: those with a hit (about 1.2% of all), similar ones and a draw of the others.
Tb MetRS inh – Trypanosoma brucei MetRS inhibition. purified T. brucei MetRS, ATP depletion, Kinase-Glo luminescence. inhibition, % at 11.9 µM. hit rate 0.4% among 360,000;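 active = inhibition above a per-plate cutoff of the control wells' mean inhibition plus 3 SD, cut at about 5.5% in these data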;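 also: 0% = DMSO wells median and 100% = median of wells with control inhibitor compound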
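Dosing: 11.9 µM single point; system: parasite MetRS enzyme; technique: luminescence of leftover ATP; times: 15 min enzyme-compound preincubation, 2 h reaction, 10 min detection, 25 °C; replicates: each compound tested once; read-out basis: percent inhibition relative to median high and low control wells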
UUG fidelity – alters start codon recognition fidelity in yeast; S. cerevisiae UUG-firefly luciferase reporter, luminescence/redox ratio; activity score, % at 18.7 µM; hit rate 0.13% among 350,000;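 active = replicate mean at a twofold rise or more, about +100% in these data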;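 also: firefly luciferase made from a UUG start codon reports start codon fidelity; reporter light over untreated wells divided by growth signal over untreated wells; some hits fall short of that in this replicate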
Arrestin-AP2 inh – human beta-arrestin and AP2 interaction inhibition. FITC-arrestin peptide / GST-AP2 beads, flow cytometry; AP2 beta2 appendage carries R879A mutation. inhibition, % at 10 µM. hit rate 0.31% among 340,000. AID 504490;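 active = inhibition above a set limit, near 3 SD of compounds lacking own fluorescence, cut at about 54% in these data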;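 also: plate controls were DMSO wells for no effect and 5 µM unlabelled arrestin peptide for full effect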
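System: GST-AP2 R879A glutathione beads. Medium: PBS with 0.05% Tween 20 and 0.1% BSA. Also added: FITC-arrestin peptide, 50 nM. Incubation: 12 min plus 1 h, RT. Measured by: high-throughput flow cytometry of beads, ex 488, em 535 nm. Evaluation: percent drop in bead-associated FITC signal.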
Pemphigus Ab inh – inhibitors of pemphigus antibody binding to human desmoglein-3. DSG3-coupled beads, scFv-anti-DSG3-GFP binding, flow cytometry; stronger effect = lower value. hit rate 0.48% among 310,000. P32926. binding (percent of control), % at 10 µM;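 active = binding more than 3 SD below its plate's average and above zero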
Rce1 inhib – yeast Ras-converting enzyme inhibition | AID 2563 | Q03530 | calls only | hit rate 0.27% among 290,000 | yeast membranes, quenched prenylated peptide cleavage fluorescence;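 active = fall in fluorescence gain of 50% or more versus controls, with final raw signal at or below 3038400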;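 also: plate controls were neutral control wells for no effect and wells lacking membranes for full effect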
* hit, by the source's call.

Results for O=C(Nc1ccccc1F)N1C[C@H]2[C@@H](c3ccccc31)[C@H](CO)N2C(=O)Cc1cccnc1 ?
UUG fidelity: -6

How did Cc1ccc(C)c(-n2sc3ccc(F)cc3c2=O)c1 do in these assays?
Tb MetRS inh: 0; UUG fidelity: -35; Arrestin-AP2 inh: 8; Pemphigus Ab inh: 55*

How did COc1ccc(-n2sc3ccc(F)cc3c2=O)cc1 do in these assays?
Tb MetRS inh: -1; UUG fidelity: -33; Arrestin-AP2 inh: 30; Pemphigus Ab inh: 50*

What do the screens show for `O=C1CCCC(=O)N1c1ccc(F)cc1`?
Tb MetRS inh: -1; UUG fidelity: -1; Arrestin-AP2 inh: 9; Pemphigus Ab inh: 92; Rce1 inhib: inactive

How did COc1ccc(-n2sc3ccccc3c2=O)cc1 do in these assays?
Tb MetRS inh: 0; UUG fidelity: -32; Pemphigus Ab inh: 74*

Results for O=c1c2cc(F)ccc2sn1-c1ccc(F)cc1 ?
Tb MetRS inh: 0; UUG fidelity: -25; Arrestin-AP2 inh: 24; Pemphigus Ab inh: 49*

What do the screens show for `C[C@@H](NC(=O)[C@H]1[C@H](CO)[C@H]2Cn3c(cccc3=O)[C@@H]1N2C(=O)C1CC1)c1ccccc1`?
UUG fidelity: -3

Results for C[C@@H]1CN([C@@H](C)CO)C(=O)c2cc(NC(=O)Nc3ccc(F)cc3)ccc2O[C@H]1CN(C)C ?
UUG fidelity: 7

How did O=C(C[C@@H]1C=C[C@@H](NC(=O)Nc2cccc(F)c2)[C@H](CO)O1)NCC1CC1 do in these assays?
UUG fidelity: -13

What do the screens show for `COCC(=O)Nc1ccc2c(c1)C(=O)N(C)[C@H]1CC[C@@H](CC(=O)NCCc3ccccc3)O[C@@H]1CO2`?
UUG fidelity: 6

How did COc1cccc(S(=O)(=O)N(C)C[C@H]2Oc3ncc(-c4cccc(C(=O)N(C)C)c4)cc3C(=O)N([C@H](C)CO)C[C@H]2C)c1 do in these assays?
UUG fidelity: -11

Results for O=C(CN1CCOCC1)NCC[C@@H]1CC[C@H](NC(=O)Cc2ccccn2)[C@H](CO)O1 ?
UUG fidelity: -14

Results for COc1ccc(C#Cc2ccc3c(c2)[C@H]2[C@H](CCN2S(=O)(=O)C2=NC(C)C=N2)[C@@H](CO)N3C)cc1 (stereo not given in full) ?
UUG fidelity: -4

How did C[C@H](CO)N1C[C@H](C)[C@H](CN(C)S(=O)(=O)c2ccc(F)cc2)OCCCC[C@H](C)Oc2ccc(NC(=O)Nc3ccc(F)cc3)cc2C1=O do in these assays?
UUG fidelity: -15

How did Cc1ccc(-n2nnnc2SCC(=O)c2c(N)n(CC(C)C)c(=O)n(C)c2=O)cc1 do in these assays?
Tb MetRS inh: -1; UUG fidelity: -13; Arrestin-AP2 inh: 10; Pemphigus Ab inh: 84*; Rce1 inhib: inactive

What do the screens show for `COc1ccc(S(=O)(=O)N[C@@H]2CC[C@H](CC(=O)N3CCN(c4ccccc4)CC3)O[C@@H]2CO)cc1`?
UUG fidelity: 7

What do the screens show for `CCN(CCCNC(=O)C1CCC(=O)N1Cc1ccccc1Cl)c1cccc(C)c1` (stereo not given)?
Tb MetRS inh: 0; UUG fidelity: 1; Arrestin-AP2 inh: -7; Pemphigus Ab inh: 78*; Rce1 inhib: inactive

Results for Cc1ccc(S(=O)(=O)N[C@H]2CC[C@H](CCNC(=O)C3CCOCC3)O[C@@H]2CO)cc1 ?
UUG fidelity: -7

Results for CCN1/C(=C2/SC(=S)NC2=O)Sc2ccccc21 ?
Tb MetRS inh: -1; Arrestin-AP2 inh: 8; Pemphigus Ab inh: 93

Results for CSc1ccc(C2=C/C(=C3/SC(=S)NC3=O)c3ccccc3O2)cc1 ?
Tb MetRS inh: 0; UUG fidelity: -5; Arrestin-AP2 inh: 5; Pemphigus Ab inh: 81*

How did CC1(C)CN(c2ccsc2C(=O)O)C1=O do in these assays?
Tb MetRS inh: -2; Arrestin-AP2 inh: 3; Pemphigus Ab inh: 56*; Rce1 inhib: inactive

Results for O=C(O)c1sccc1S(=O)(=O)N1CCCCC1 ?
Tb MetRS inh: 0; UUG fidelity: -13; Pemphigus Ab inh: 105

What do the screens show for `COCc1cn(CC[C@H]2CC[C@H](NC(=O)Nc3ccccc3)[C@@H](CO)O2)nn1`?
UUG fidelity: -1

What do the screens show for `Cc1ccc(-c2csc3nc4c5ccccc5c(NCCCN(C)C)nn4c(=O)c23)cc1`?
Tb MetRS inh: -1; UUG fidelity: 7; Arrestin-AP2 inh: -19; Pemphigus Ab inh: 101; Rce1 inhib: active

How did Cc1ccc(-c2csc3nc4c5ccccc5c(NCCCN5CCOCC5)nn4c(=O)c23)cc1 do in these assays?
Rce1 inhib: inactive

Reprinted at random: 3 compounds from above.
What do the screens show for `C[C@@H](NC(=O)[C@H]1[C@H](CO)[C@H]2Cn3c(cccc3=O)[C@@H]1N2C(=O)C1CC1)c1ccccc1`?
UUG fidelity: -3

How did Cc1ccc(-n2nnnc2SCC(=O)c2c(N)n(CC(C)C)c(=O)n(C)c2=O)cc1 do in these assays?
Tb MetRS inh: -1; UUG fidelity: -13; Arrestin-AP2 inh: 10; Pemphigus Ab inh: 84*; Rce1 inhib: inactive

Results for C[C@@H]1CN([C@@H](C)CO)C(=O)c2cc(NC(=O)Nc3ccc(F)cc3)ccc2O[C@H]1CN(C)C ?
UUG fidelity: 7
